Results taken from US20070184519A1, “Peptides, polypeptides, and proteins of reduced immunogenicity and methods for their production” (priority 2003, published 2007).
Blank lines part the entries; values can stand above or below the compound they belong to.

Legend:
DRB1*0802 = target: T1, DRB1*0802 (Homo sapiens, UniProt P01903+P01911, A100R/A103L/A169T/F76Y/H45Y/I96F/K41T/L162R/M171V/P40S/Q125H/Q178H/Q39Y/Q99D/R218S/R42G/S66Y/V115G/W38E); experiment: Class II peptide-binding assay DRB1*0802 (DR8w2)
T1 construct: Epstein-Barr virus (EBV) transformed homozygous cell lines were used as sources of human HLA Class II molecules; endogenous in cells; host or cells: OLL (EBV-transformed homozygous B cell line)

DRB1*0901 = DRB1*0901 (Homo sapiens, UniProt P01903+P01911, A100R/A103E/D57H/D86V/F55Y/F60I/F76Y/I96F/K127E/L162R/M171V/P40D/Q125H/Q99R/R33Q/R42F/S133A/S66N/T210M/V115G/W38K/Y107V/Y59G/Y89S); experiment: Class II peptide-binding assay DRB1*0901 (DR9); details: IFNb 15-mer peptides, Table 5D
DRB1*0101 = target: T2, DRB1*0101 (Homo sapiens, UniProt P01903+P01911, A100R/D57E/F55L/F60I/F76Y/I96L/L162R/M171V/P40L/Q125E/R42F/V115G/Y59C); experiment: Class II peptide-binding assay DRB1*0101 (DR1); details: inhibition of radiolabeled probe binding; — read as no appreciable binding
T2 construct: Epstein-Barr virus (EBV) transformed homozygous cell lines were used as sources of human HLA Class II molecules; endogenous in cells; host or cells: LG2 (EBV-transformed homozygous B cell line)

DRB1*0301 = target: T3, DRB1*0301 (Homo sapiens, UniProt P01903+P01911, A100K/A102G/A103R/A169T/F55Y/I96L/K41T/L162R/M171V/P40S/Q125H/Q178H/Q39Y/R42S/S66N/T106N/T262R/W38E/Y61H); experiment: Class II peptide-binding assay DRB1*0301 (DR3); details: inhibition of radiolabeled probe binding; — read as no appreciable binding
T3 construct: Epstein-Barr virus (EBV) transformed homozygous cell lines were used as sources of human HLA Class II molecules; endogenous in cells; host or cells: MAT (EBV-transformed homozygous B cell line)

DRB1*0401 = target: T4, DRB1*0401 (Homo sapiens, UniProt P01903+P01911, A100K/A169T/F76Y/I96L/K127E/L162R/M171V/N62H/P40V/Q125Y/R42H/S133A/S149N/S66Y/V115G/V209L/W38E); experiment: Class II peptide-binding assay DRB1*0401 (DR4w4); details: inhibition of radiolabeled probe binding; — read as no appreciable binding
T4 construct: Epstein-Barr virus (EBV) transformed homozygous cell lines were used as sources of human HLA Class II molecules; endogenous in cells; host or cells: PREISS (EBV-transformed homozygous B cell line)

DRB1*0404 = target: T5, DRB1*0404 (Homo sapiens, UniProt P01903+P01911, A100R/A169T/F76Y/I96L/K127E/L162R/M171V/N62H/P40V/Q125Y/R42H/S133A/S149N/S66Y/V209L/W38E); experiment: Class II peptide-binding assay DRB1*0404 (DR4w14); details: inhibition of radiolabeled probe binding; — read as no appreciable binding
T5 construct: Epstein-Barr virus (EBV) transformed homozygous cell lines were used as sources of human HLA Class II molecules; endogenous in cells; host or cells: BIN40 (EBV-transformed homozygous B cell line)

DRB1*1101 = target: T6, DRB1*1101 (Homo sapiens, UniProt P01903+P01911, A100R/A169T/A87E/I96F/K41T/L162R/M171V/P40S/Q125H/Q178H/Q39Y/Q99D/R42S/S66Y/T262R/V115G/W38E); assay type: binding; details: inhibition of radiolabeled probe binding; — read as no appreciable binding
T6 construct: Epstein-Barr virus (EBV) transformed homozygous cell lines were used as sources of human HLA Class II molecules; endogenous in cells; host or cells: SWEIG (EBV-transformed homozygous B cell line)

DRB1*1302 = target: T7, DRB1*1302 (Homo sapiens, UniProt P01903+P01911, A100E/A169T/K41T/L162R/M171V/P40S/Q125H/Q178H/Q39Y/Q99D/R42S/S66N/T262R/V115G/W38E/Y61H); experiment: Class II peptide-binding assay DRB1*1302 (DR6w19); details: inhibition of radiolabeled probe binding; — read as no appreciable binding
T7 construct: Epstein-Barr virus (EBV) transformed homozygous cell lines were used as sources of human HLA Class II molecules; endogenous in cells; host or cells: HO301 / H0301 (EBV-transformed homozygous B cell line)

DRB1*1501 = target: T8, DRB1*1501 (Homo sapiens, UniProt P01903+P01911); experiment: Class II peptide-binding assay DRB1*1501 (DR2w2b); details: inhibition of radiolabeled probe binding; — read as no appreciable binding
T8 construct: expressed in transfected cells; host or cells: transfected fibroblasts L466.1

[1] = inhibition of radiolabeled probe binding, — read as no appreciable binding

Compound: C[C@H](NC(=O)[C@H](CC(=O)O)NC(=O)[C@H](CC(=O)O)NC(=O)[C@H](CC(N)=O)NC(=O)[C@H](Cc1c[nH]cn1)NC(=O)[C@H](CO)NC(=O)[C@H](CC(N)=O)NC(=O)[C@@H](NC(=O)[C@H](CC(=O)O)NC(=O)[C@H](Cc1ccccc1)NC(=O)[C@H](CCCCN)NC(=O)[C@H](CO)NC(=O)[C@H](Cc1ccc(O)cc1)NC(=O)[C@@H](NC(=O)[C@@H](N)CCC(N)=O)[C@@H](C)O)[C@@H](C)O)C(=O)O
- IC50 (DRB1*0802; [1]): 3.58 µM

Compound: CC[C@H](C)[C@H](NC(=O)[C@H](CCC(=O)O)NC(=O)[C@H](CCC(=O)O)NC(=O)[C@@H]1CCCN1)C(=O)N[C@@H](CCCCN)C(=O)N[C@@H](CCC(N)=O)C(=O)N[C@@H](CC(C)C)C(=O)N[C@@H](CCC(N)=O)C(=O)N[C@@H](CCC(N)=O)C(=O)N[C@@H](Cc1ccccc1)C(=O)N[C@@H](CCC(N)=O)C(=O)N[C@@H](CCCCN)C(=O)N[C@@H](CCC(=O)O)C(=O)N[C@@H](CC(=O)O)C(=O)N[C@@H](C)C(=O)O
- IC50 (DRB1*0802; IFNb 15-mer peptides, Table 5D): 3.87 µM

Compound: CC[C@H](C)[C@H](NC(=O)[C@H](CCC(=O)O)NC(=O)[C@@H](NC(=O)[C@H](CCCNC(=N)N)NC(=O)[C@@H](NC(=O)[C@@H](NC(=O)[C@@H](NC(=O)[C@H](Cc1c[nH]c2ccccc12)NC(=O)[C@H](C)NC(=O)[C@H](CS)NC(=O)[C@H](Cc1c[nH]cn1)NC(=O)[C@H](CO)NC(=O)[C@H](CC(=O)O)NC(=O)[C@H](CCC(=O)O)NC(=O)[C@@H](N)CCCCN)[C@@H](C)O)[C@@H](C)CC)C(C)C)C(C)C)C(=O)O
- IC50 (DRB1*0901): 1.94 µM

Now from value to compound:

- IC50 (DRB1*0802; [1]): 4.73 µM
Compound: CC[C@H](C)[C@H](NC(=O)[C@H](C)NC(=O)[C@H](CCC(=O)O)NC(=O)[C@H](CCCCN)NC(=O)[C@H](CCC(N)=O)NC(=O)[C@H](C)NC(=O)CNC(=O)[C@H](CC(C)C)NC(=O)[C@H](C)N)C(=O)N[C@@H](CO)C(=O)N1CCC[C@H]1C(=O)N1CCC[C@H]1C(=O)N[C@@H](CC(=O)O)C(=O)N[C@@H](C)C(=O)N[C@@H](C)C(=O)O

- IC50 (DRB1*0101): 9.44 µM
- IC50 (DRB1*0301): 7.58 µM
- IC50 (DRB1*0401): 1.56 µM
- IC50 (DRB1*0404): 12.7 µM
- IC50 (DRB1*0802; [1]): 3.9 µM
- IC50 (DRB1*1101): 4.51 µM
- IC50 (DRB1*1302): 9.83 µM
- IC50 (DRB1*1501): 2740 nM
Compound: CSCC[C@H](NC(=O)[C@H](CC(=O)O)NC(=O)[C@H](CCCCN)NC(=O)[C@H](CCCNC(=N)N)NC(=O)[C@H](Cc1ccccc1)NC(=O)[C@H](CS)NC(=O)[C@H](Cc1ccc(O)cc1)NC(=O)[C@H](CC(C)C)NC(=O)[C@@H](N)CC(C)C)C(=O)N[C@@H](CC(=O)O)C(=O)N[C@@H](CCCCN)C(=O)N[C@H](C(=O)N[C@@H](CCC(=O)O)C(=O)N[C@H](C(=O)N[C@@H](Cc1ccccc1)C(=O)O)[C@@H](C)O)C(C)C
